The text below walks through data of patent US20230390223A1, “ADMINISTRATION OF […] COMPOSITIONS FOR TREATING NERVOUS SYSTEM DISORDERS” (PaxMedica, Inc., priority 2020, published 2023).

Molecules are shown by their SMILES.

Common to all, as to format: in vivo
For assay [1], the system named is B6.129P2-Fmr1tm1Cgr/J transgenic (TG) mice. Put plainly: Step through passive avoidance test (learning and memory). The settings on record: 5-minute test, A-804598 IP 30 mg/kg/day, tangeretin IP 10 mg/kg/day, emodin+piperine PO 20 mg/kg each twice per day. An excerpt: The Passive Avoidance task is useful for evaluating the effect of novel chemical entities on learning and memory as well as studying the mechanisms involved in rodent models of CNS disorders. In this test, the test chamber is divided into a lighted compartment and a dark compartment, with a gate between the two. The test animals explored both compartments on the first day. The next day, they are given a mild foot shock in the dark compartment and they will learn to associate the dark compartment with the foot shock. In order to test their learning and memory, the mice are then placed back in the lighted compartment. Passive avoidance behavior of rodents is defined as the suppression of their innate preference for the dark compartment. Mice with normal learning and memory will avoid entering the dark chamber. Learning and memory from the previous day is measured by recording the latency to cross through the gate between the two compartments. See, J. David Sweatt, Chapter 4: Rodent Behavioral Learning and Memory Models, Editor: J. David Sweatt. Mechanisms of Memory (Second Edition), Academic Press, 2010, Pages 76-103, ISBN 9780123749512. […]
Male B6.129P2-Fmr1tm1Cgr/J TG (TG) mice were purchased from Jackson Laboratories, Bar Harbor, Maine. […] Body weights of all mice were recorded for health monitoring purposes. […]

Assay [2] shares this test system. Kind of assay: Light/dark preference test (LDT), anxiety-like behavior, SmartCage. An excerpt:
The light/dark preference test (LDT) is one of the most widely used tests in pharmacology to measure unconditioned anxiety-like behavior in mice. The test is based on the natural aversion of mice to brightly illuminated areas and on their spontaneous exploratory behavior in response to a novel environment and light. See, Takao, K., et al., Light/dark Transition Test for Mice. J. Vis. Exp. (1), e104, doi:10.3791/104 (2006).
This study used a SmartCage™ system, which is an automated non-invasive rodent behavioral monitoring system which enables biomedical researchers to conduct a variety of neurobehavioral assays through consistent and accurate monitoring of rodent home cage activity and behavior. See, Xie X. S. et al. (2012) Rodent Behavioral Assessment in the Home Cage Using the SmartCage™™ System. In: Chen J., Xu X M., Xu Z., Zhang J. (eds) Animal Models of Acute Neurological Injuries II. Springer Protocols Handbooks. Humana Press, Totowa, NJ.
• 1. N=6 mice per group. • 2. All behavioral testing included a group of untreated wild type controls. • 3. Dosing for the various groups were as follows: • a. […] Group 2: IP saline, […], administered weekly to animals beginning at 9 weeks of age and continuing for four weeks (i.e. given at Age Weeks 9, 10, 11 and 12). • c. […] Groups 6-8: • Group 6: Compound A-804598 (purchased from Tocris), a selective P2X7 antagonist, dosed at 30 mg/kg/day by intraperitoneal injection, starting 7 days prior to the behavioral testing, and continuing through the completion of all experiments. • Group 7: Tangeretin (Sigma), a selective P2Y2 antagonist, dosed at 10 mg/kg/day by intraperitoneal injection, starting 7 days prior to the behavioral testing, and continuing through the completion of all experiments. The drug can be prepared in saline, with 10% Cremophore EL (Sigma) and 10% DSMO. • Group 8: Emodin (Sigma), a selective P2X7 antagonist, dosed by oral gavage at 20 mg/kg, in combination with Piperine (Sigma), dosed by oral gavage at 20 mg/kg, both administered twice per day, starting 7 days prior to the behavioral testing, and continuing through the completion of all experiments. • 1. Behavioral tests for all groups (Groups 1-5) began the following day after the last day of IN dosing (Weeks 13-14 of age). • 2. […]
Male B6.129P2-Fmr1tm1Cgr/J TG mice were purchased from Jackson Laboratories, Bar Harbor, Maine. […] Body weights of all mice were recorded for health monitoring purposes.
Dosing was carried out over the course of 28 days as instructed by the study sponsor. • 1. […] Anxiety-like behavior is assessed based on the SmartCage™ monitoring of time spent in the Light Zone, the number of Light Zone entries, and % Time Spent in the Light Zone. • 5. […]

Assay [3] has the same test system. Kind of assay: Locomotor activity test, SmartCage ~24 h recording. The settings on record: A-804598 IP 30 mg/kg/day, tangeretin IP 10 mg/kg/day, versus WT control group. The source says: The Locomotor Activity test is a means of establishing spontaneous locomotor activity, arousal, and willingness to explore in rodents. It is one of the most common rodent tests which can be used to test the effects of various medications on animal behavior in both wild type and genetically modified animals. See, Seibenhener M L, Wooten M C. Use of the Open Field Maze to measure locomotor and anxiety-like behavior in mice. J Vis Exp. 2015; (96):e52434. Published 2015 Feb. 6. doi:10.3791/52434.
This study used a SmartCage™ system, which is an automated non-invasive rodent behavioral monitoring system which enables biomedical researchers to conduct a variety of neurobehavioral assays through consistent and accurate monitoring of rodent home cage activity and behavior. See, Xie et al, 2012, (Ibid.).
Materials and Methods: Experimental Arms (Treatment Groups): • 1. N=6 mice per group. • 2. All behavioral testing included a group of untreated wild type controls. • 3. Dosing for the various groups were as follows: • a. […]
Male B6.129P2-Fmr1tm1Cgr/J TG (TG) mice were purchased from Jackson Laboratories, Bar Harbor, Maine. […] Body weights of all mice were recorded for health monitoring purposes.
Dosing was carried out over the course of 28 days as instructed by the study Sponsor. […] Day 1 to Day 2: Locomotor Activity recording is assessed using the SmartCage™ • 2. […]

Where [4] appears, read: 10-minute test, group regimens: A-804598 IP 30 mg/kg/day, tangeretin IP 10 mg/kg/day, emodin+piperine PO 20 mg/kg each twice per day.

For `C[C@H](N/C(=N/C#N)Nc1cccc2ncccc12)c1ccccc1` [Formulation A-804598, N-Cyano-N″-[(1S)-1-phenylethyl]-N′-5-quinolinyl-guanidine], in assay [1], the “percentage of time spent in the light zone on the test day” value was “approximately 50%” and the “total light zone time on the test day” value is “lower total time”. In assay [2] (setting [4]), the “percentage of time spent in the Light Zone” value is listed as “higher percentage of time spent in the Light Zone” and the “total time spent in the light zone” value is approximately 8.2 min. Besides, in assay [2] (A-804598 IP 30 mg/kg/day, 10-minute test, FIG. 11), the “latency for Dark Zone entry compared with other treatment groups” value is recorded as 4 fold. Also, the “dark box (Dark Zone) entry latency” value in assay [2] (A-804598 IP 30 mg/kg/day, cutoff 600 seconds) is reported as 333.6 s. For the same molecule, the Active time entry in assay [3] is on record as “greater activity compared to the WT control group”.
